Experimental data as given in PubChem BioAssay (EPA / NIEHS).
The entries are a selection whose mix differs from that of the whole data set. The source made the active and inactive calls. The calls were made as follows: active = hit-call score of the fitted dose curve at least 0.9, where 1 is the maximum; inactive = score below 0.9.

experiment: ATG_PPRE_CIS: Attagene CIS-FACTORIAL HepG2 Assay for human Peroxisome Proliferator-activated Response Element (PPRE) (AID 2282958); conditions: HepG2 PPRE cis-element reporter, Attagene transcription factor profiling; actives raise or lower the signal
Description: ATG_CIS is a cell-based, multiplexed-readout assay that uses HepG2, a human liver cell line, with measurements taken at 24 hours after chemical dosing in a 24-well plate.ATG_PPRE_CIS is one of 52 assay component(s) measured or calculated from the ATG_CIS assay. It is designed to make measurements of mRNA induction, a form of inducible reporter, as detected with fluorescence intensity signals by Reverse transcription polymerase chain reaction (RT-PCR) and Capillary electrophoresis technology.Data from the assay component ATG_PPRE_CIS was analyzed into 1 assay endpoint. This assay endpoint, ATG_PPRE_CIS, was analyzed with bidirectional fitting relative to DMSO as the negative control and baseline of activity. Using a type of inducible reporter, measures of mRNA for gain or loss-of-signal activity can be used to understand the reporter gene at the transcription factor-level as they relate to the gene PPARA and PPARD and PPARG. Furthermore, this assay endpoint can be referred to as a primary readout, because this assay has produced multiple assay endpoints where this one serves a reporter gene function. To generalize the intended target to other relatable targets, this assay endpoint is annotated to the nuclear receptor intended target family, where the subfamily is non-steroidal.
Human liver HepG2 cells are transiently transfected with multiple reporter transcription units (MRTUs) in 6-well plates using FuGene 6 reagent (Roche; 3 ml FuGene/1 mg DNA). The MRTU constructs are regulated by a cis-regulating element (promoter). […] A major difference between the CIS and TRANS system is that in CIS activities of endogenous TFs are measured, whereas the TRANS assay evaluates changes in activities of exogenous, chimeric NR-Gal4 proteins. […] At the end of 24 hour incubation, total RNA was isolated using TriZol reagent (Invitrogen). The isolated RNA is then reverse-transcribed using oligo(dT) primer and Mo-MLV reverse transcriptase (Invitrogen) with DNAse I (Ambion) treatment for 30 min. The one-tenth of the produced cDNA was amplified by PCR using Taq DNA polymerase (Invitrogen) and two reporter sequence-specific primers. The PCR products were fluorescently labeled by primer extension with 6-arboxyfluorescein (6-FAM) 5'-labeled reporter sequence-specific primer (2 min at 95 C, 20 s at 68 C and 10 min at 72 C) and these products were digested with 5U of HpaI (New England Biolabs) for 2h at 37 C. The fragments were purified using Qiaquick PCR columns (Qiagen), analyzed on an ABI 3130xL genetic analyzer (Applied Biosystems) with peak positions identified by using a set of X-rhodamine (ROX)-labeled MapMarker1000 molecular weight standards (BioVentures). The raw capillary electrophoresis data was processed using Attagraph software (Attagene).

Row | Compound | outcome
1 | O=[P+](Oc1ccccc1)Oc1ccccc1 | inactive
2 | O=C(Cl)Oc1ccccc1 | inactive
3 | CCCCOP(OCCCC)OCCCC | inactive
4 | CC(C)CCCCCCCOP(OCCCCCCCC(C)C)Oc1ccccc1 | inactive
5 | CCCCC(CC)CO[P+](=O)OCC(CC)CCCC (configuration not stated) | inactive
6 | O=[N+]([O-])c1ccc([N+](=O)[O-])cc1 | inactive
7 | O=[p+]1oc2ccccc2c2ccccc21 (configuration not stated) | inactive
8 | O=P(Cl)(Oc1ccccc1)Oc1ccccc1 | inactive
9 | O=C1C2CC=CCC2C(=O)N1SC(Cl)(Cl)C(Cl)Cl (configuration not stated) | inactive
10 | O=C(Cl)OCCOC(=O)Cl | inactive
11 | ClP(Cl)c1ccccc1 | inactive
12 | O=[As]c1ccccc1 (configuration not stated) | inactive
